Assay results reported in ChEMBL document CHEMBL1133626, “GRid-INdependent descriptors (GRIND): a novel class of alignment-independent three-dimensional molecular descriptors” (J Med Chem, 2000).

Assays:
[1] = Binding affinity of the Corticosteroid-Binding Globulin Receptor with aldosterone
[2] = Binding affinity of the Corticosteroid-Binding Globulin Receptor with cortisone

Compound | Log K [1] | Log K [2]
OC[C@H]1OC(O)[C@H](O)[C@@H](O)[C@@H]1O (some centres not stated) | 6.28 | –
O=C1NC(=O)[C@@]2(N1)O[C@@H](CO)[C@@H](O)[C@H](O)[C@@H]2O | – | 6.89
